We go through 1 compound from article PMC10321576, “Cyclic peptides target the aromatic cage of a PHD-finger reader domain to modulate epigenetic protein function” (Chemical Science, 2023).

Amino acid sequences for entries named in this document (tags omitted). Residues count along the entry.
UniProt Q9UPP1, 37-483 limits assumed: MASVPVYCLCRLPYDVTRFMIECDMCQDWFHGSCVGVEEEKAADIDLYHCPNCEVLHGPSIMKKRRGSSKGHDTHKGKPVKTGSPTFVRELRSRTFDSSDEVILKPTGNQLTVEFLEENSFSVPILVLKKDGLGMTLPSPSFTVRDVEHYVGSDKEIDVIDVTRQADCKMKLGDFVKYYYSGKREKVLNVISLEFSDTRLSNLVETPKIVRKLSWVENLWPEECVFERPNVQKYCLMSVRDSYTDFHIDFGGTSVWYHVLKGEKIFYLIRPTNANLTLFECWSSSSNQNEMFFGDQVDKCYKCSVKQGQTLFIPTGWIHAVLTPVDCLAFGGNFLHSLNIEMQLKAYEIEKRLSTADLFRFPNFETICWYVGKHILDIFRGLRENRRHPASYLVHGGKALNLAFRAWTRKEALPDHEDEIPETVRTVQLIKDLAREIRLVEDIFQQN

In this experiment the target is T1, KDM7B dual domain (Homo sapiens, UniProt Q9UPP1).
T1 construct: dual domain (PHD-JmjC) of KDM7B; His-tag (C); made in house
The experiment can be described thus: MALDI-TOF-MS KDM7 activity assay (H3 peptide demethylation). The format is biochemical. The following applies: KDM7B 0.4 μM, N = 2 experiments in technical triplicate. An excerpt: We tested the effect of OC9 on KDM7B demethylation of H3_1–21K4me3K9me2 and the less-efficient H3_1–21K9me2 substrate by MALDI-TOF MS based assay.[14,19] […] Inhibition by OC9 was further confirmed by an orthogonal AS activity assay[58] (Fig. S41 ^†). […] As KDM7B aromatic cage mutation results in the same phenotypic outcome as JmjC catalytic site inactivation (e.g. KDM7B demethylase-dependent melanoma metastasis[20]), our results emphasise the crucial role of PHD-fingers in regulating KDM7 demethylase activity and the need to explore PHD-finger viability as therapeutic targets.
Fig. 5 KDM7 PHD-finger inhibition by OC9 modulates dual domain JmjC activity. (a) (i–iii) OC9 inhibits demethylation of H3K9me2, with or without K4me3, by KDM7B (0.4 μM) on H3 peptide (2.5 μM). […] (b) (i–iii) OC9 enhances demethylation of H3K4me3K9me2 by KDM7A (0.55 μM) on H3 peptide (2.5 μM), and (iv) enhances KDM7A (0.5 μM) demethylation of calf histone extracts (50 μg). […] Inset MALDI-TOF-MS overlays are from respective highest OC9 concentration points compared to DMSO alone. KDM7 PHD-finger only proteins had no demethylase activity (Fig. S40 ^†). Calf histone H3K9me2 was quantitated relative to H4 band intensities at each time point, normalised to DMSO at t = 0. Full Western blots available in Fig. S42. ^† Relative rates (Krel min^−1) from a one-phase decay model, average from N = 3 independent experiments. […]

The IC50 is the concentration needed to halve the response being measured. A low value points to inhibition by little substance. `CN(C)NC(=O)CCC(=O)O` [DAM, daminozide] gave an IC50 (KDM7B K4me3K9me2 pIC50^MS/M) of 398 nM and an IC50 (KDM7B K9me2 pIC50^MS/M) of 251 nM.
